The nature of one data set: Aggressive mouse test. The class given is in vivo, male mice (NMRI). The settings on record: 30 minutes after administration.
The nature of data set [1]: Phenyl-p-quinone writhing test (analgesia). The class given is in vivo, male mice. The settings on record: mouse, hydrochloride.
In another data set the test system is mouse. The data set can be described thus: Acute toxicity. The following applies: hydrochloride, observation 48 hours.
A short description of data set [2]: Temperature-reducing effect (decrease in body temperature). The class given is in vivo, male rats (SIV; printed "rate"). The following applies: rat, dose not given, 2 hours.

As for `CCOC(=O)[C@@]1(c2ccccc2)CCC=C[C@@H]1N(C)C` (relative stereo), the “Aggressive Mouse ED 50” value in “Aggressive mouse test” (i.g.) and in “Aggressive mouse test” (s.c.) was “no effect” in each case. For the same compound, the “Analgesia ED 50 Phenyl-p-Quinone Writhing Test” value in data set [1] (i.g.) is reported as 14.0 mg/kg; in data set [1] (s.c.) it was 15.9 mg/kg. Moreover, the “Acute Toxicity LD 50” value was 437 mg/kg with mouse (i.g.) and 490 mg/kg in the data set on mouse (s.c.). In addition, the “Decrease in Body Temperature in ° C” value in data set [2] (i.g.) and in data set [2] (s.c.) was “no effect” throughout.

The values above are taken from patent US4008233A (priority 1972, dated 1977).
